Laboratory results published in patent publication EP0101641A2, “Sulfonylamino-aza-bicyclo-alkyl derivatives” (BEECHAM GROUP PLC, priority 1982, dated 1984).

System: Dopamine Receptor
Experiment: Inhibition of apomorphine induced climbing in the mouse (central dopamine receptor blocking activity)
Assay type: in vivo
Details: apomorphine 1mg/kg s.c.

5-hlethanesu-lphonylamido-2-rnethoxy-3-methyl-N-[3a-[8-benzyl-8-azabicyclo(3.2.1)octyl}]benzamide [Compound 10]
CNS (Climbing) ED50: ED50 9.3 mg/kg s.c.
